Results reported in US20250195530A1, “POLQ INHIBITORS” (ASTRAZENECA AB, priority 2022, published 2025).

Sequences of proteins named here, by UniProt entry; tags and fusion partners are left off. Residues count along the entry.
UniProt O75417, 1780-2590: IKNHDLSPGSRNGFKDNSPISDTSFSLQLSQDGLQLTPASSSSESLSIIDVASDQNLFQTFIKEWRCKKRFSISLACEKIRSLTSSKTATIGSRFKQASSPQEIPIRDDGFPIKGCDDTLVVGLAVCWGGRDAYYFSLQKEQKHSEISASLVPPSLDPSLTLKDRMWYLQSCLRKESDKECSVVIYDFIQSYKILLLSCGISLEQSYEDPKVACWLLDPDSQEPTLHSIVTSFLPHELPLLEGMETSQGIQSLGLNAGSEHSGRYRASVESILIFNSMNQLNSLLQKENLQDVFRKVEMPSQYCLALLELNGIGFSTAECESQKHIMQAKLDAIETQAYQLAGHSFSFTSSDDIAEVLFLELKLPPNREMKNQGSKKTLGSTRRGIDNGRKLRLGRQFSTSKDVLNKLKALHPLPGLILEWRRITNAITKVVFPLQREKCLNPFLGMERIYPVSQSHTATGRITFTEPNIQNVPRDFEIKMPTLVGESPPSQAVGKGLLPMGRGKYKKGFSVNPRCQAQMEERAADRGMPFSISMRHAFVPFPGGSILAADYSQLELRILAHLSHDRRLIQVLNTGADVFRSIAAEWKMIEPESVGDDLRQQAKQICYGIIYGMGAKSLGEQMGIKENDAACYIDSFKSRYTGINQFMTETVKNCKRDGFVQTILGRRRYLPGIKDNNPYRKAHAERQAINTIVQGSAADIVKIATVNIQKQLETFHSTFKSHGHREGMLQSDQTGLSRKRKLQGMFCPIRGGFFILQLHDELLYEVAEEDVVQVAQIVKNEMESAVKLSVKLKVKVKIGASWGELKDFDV

Target: isolated polymerase domain (I1780-V2590) of DNA polymerase theta (Polθ) (Homo sapiens (Human), UniProt O75417)

| SMILES | IC50 |
| --- | --- |
| CC1(Oc2ncnc3c2nc(-c2ccc(OC[C@H]4C[C@H](C(=O)O)C4)cc2Cl)n3Cc2cccc(Cl)c2)CC1 [Example T410, (1r,3r)-3-((3-chloro-4-(9-(3-chlorobenzyl)-6-(1-methylcyclopropoxy)-9H-purin-8-yl)phenoxy)methyl)cyclobutane-1-carboxylic acid] | 7.94 nM |
| COc1ccc(-c2nc3c(OC4(C)CC4)ncnc3n2Cc2ccccc2)c(Cl)c1 [Example N8, 9-Benzyl-8-(2-chloro-4-methoxyphenyl)-6-(1-methylcyclopropoxy)-9H-purine] | 3.16 nM |
| CN1CCN(CCOc2cc(Cl)c(-c3nc4c(OC5(C)CC5)ncnc4n3Cc3ccccc3)cn2)CC1 [Example 20, 9-Benzyl-8-(4-chloro-6-(2-(4-methylpiperazin-1-yl)ethoxy)pyridin-3-yl)-6-(1-methylcyclopropoxy)-9H-purine] | 5.01 nM |
| CC(C)Oc1ccc2c(c1)nc(-c1ccc(OCCN3CCN(C)CC3)cc1Cl)n2Cc1cccc(Cl)c1 [Example 2, 2-(2-Chloro-4-(2-(4-methylpiperazin-1-yl)ethoxy)phenyl)-1-(3-chlorobenzyl)-5-isopropoxy-1H-benzo[d]imidazole] | 2 nM |
| Cc1cc(N2CC(N(C)C)C2)ncc1-c1nc2c(OC3(C)CC3)ncnc2n1Cc1ccccc1 [Example F2, 1-(5-(9-benzyl-6-(1-methylcyclopropoxy)-9H-purin-8-yl)-4-methylpyridin-2-yl)-N,N-dimethylazetidin-3-amine] | 2.51 nM |
| CCCCCCC(=O)NCCCOc1ccc(-c2nc3cc(OC(C)C)ccc3n2Cc2ccccc2)c(Cl)c1 [Example A4, N-(3-(4-(1-benzyl-5-isopropoxy-1H-benzo[d]imidazol-2-yl)-3-chlorophenoxy)propyl)heptanamide] | 7.94 nM |
| Cc1ccnc(Cn2c(-c3ccc(OCCN4CCn5cnnc5C4)cc3Cl)nc3c(OC4(C)CC4)ncnc32)c1 [Example T560] | 3.16 nM |
| COc1ccc(C)cc1Cn1c(-c2cccc(O[C@H]3CC[C@H](C(=O)O)CC3)c2Cl)nc2c(OC3(C)CC3)ncnc21 [Example U91, (1r,4r)-4-(2-chloro-3-(9-(2-methoxy-5-methylbenzyl)-6-(1-methylcyclopropoxy)-9H-purin-8-yl)phenoxy)cyclohexane-1-carboxylic acid] | 3.98 nM |
| CC1(Oc2ncnc3c2nc(-c2ccc(OCC(C)(C)C(=O)O)cc2Cl)n3Cc2cccc(Cl)c2)CC1 [Example 32, 3-(3-Chloro-4-(9-(3-chlorobenzyl)-6-(1-methylcyclopropoxy)-9H-purin-8-yl)phenoxy)-2,2-dimethylpropanoic acid] | 5.01 nM |
| CN1CCN(CCOc2ccc(-c3nc4c(OC5(C)CC5)ncnc4n3Cc3ccccn3)c(Cl)c2)CC1 [Example E5, 8-(2-chloro-4-(2-(4-methylpiperazin-1-yl)ethoxy)phenyl)-6-(1-methylcyclopropoxy)-9-(pyridin-2-ylmethyl)-9H-purine] | 3.98 nM |
| Cc1cc(OCCN2CCNCC2)ncc1-c1nc2c(OC3(C)CCC3)ncnc2n1Cc1ccccc1 [Example 24, 9-Benzyl-8-(4-methyl-6-(2-(piperazin-1-yl)ethoxy)pyridin-3-yl)-6-(1-methylcyclobutoxy)-9H-purine] | 5.01 nM |
| CN1CCC(COc2ccc(-c3nc4c(OC5(C)CC5)ncnc4n3Cc3ccccc3)c(Cl)c2)CC1 [Example 5, 9-Benzyl-8-(2-chloro-4-((1-methylpiperidin-4-yl)methoxy)phenyl)-6-(1-methylcyclopropoxy)-9H-purine] | 2 nM |
| Cc1cc(OCCN)ncc1-c1nc2c(OC3(C)CC3)ncnc2n1Cc1ccccc1 [Example G8, 2-((5-(9-benzyl-6-(1-methylcyclopropoxy)-9H-purin-8-yl)-4-methylpyridin-2-yl)oxy)ethan-1-amine] | 2.51 nM |
| COc1ccc(Cl)cc1Cn1c(-c2cccc(OCCC(=O)O)c2Cl)nc2c(OC3(C)CC3)ncnc21 [Example 49, 3-(2-Chloro-3-(9-(5-chloro-2-methoxybenzyl)-6-(1-methylcyclopropoxy)-9H-purin-8-yl)phenoxy)propanoic acid] | 7.94 nM |
| COc1ccc(Cl)cc1Cn1c(-c2ccc(OCC[C@H](C)C(=O)O)cc2Cl)nc2c(OC3(C)CC3)ncnc21 [Example 48, (S)-4-(3-chloro-4-(9-(5-chloro-2-methoxybenzyl)-6-(1-methylcyclopropoxy)-9H-purin-8-yl)phenoxy)-2-methylbutanoic acid] | 5.01 nM |
| CC1(Oc2ncnc3c2nc(-c2cccc(O[C@H]4CC[C@H](C(=O)O)CC4)c2Cl)n3Cc2cccc(Cl)c2)CC1 [Example T542, (1r,4r)-4-(2-chloro-3-(9-(3-chlorobenzyl)-6-(1-methylcyclopropoxy)-9H-purin-8-yl)phenoxy)cyclohexane-1-carboxylic acid] | 3.16 nM |
| CC1(Oc2ncnc3c2nc(-c2ccc(OCCN4CCNCC4)cc2Cl)n3Cc2cccc(C#N)n2)CC1 [Example K9, 6-((8-(2-chloro-4-(2-(piperazin-1-yl)ethoxy)phenyl)-6-(1-methylcyclopropoxy)-9H-purin-9-yl)methyl)picolinonitrile] | 3.98 nM |

| SMILES | IC50 |
| --- | --- |
| CN(C)CCCOc1ccc(-c2nc3c(OC4(C)CC4)ncnc3n2Cc2cc(Cl)ccn2)c(Cl)c1 [Example 17, 3-(3-Chloro-4-(9-((4-chloropyridin-2-yl)methyl)-6-(1-methylcyclopropoxy)-9H-purin-8-yl)phenoxy)-N,N-dimethylpropan-1-amine] | 6.31 nM |
| Cc1ccnc(Cn2c(-c3ccc(OCCN4CC(O)C4)cc3Cl)nc3c(OC4(C)CC4)ncnc32)c1 [Example 26, 1-(2-(3-Chloro-4-(6-(1-methylcyclopropoxy)-9-((4-methylpyridin-2-yl)methyl)-9H-purin-8-yl)phenoxy)ethyl)azetidin-3-ol] | 3.98 nM |
| CC1(Oc2ncnc3c2nc(-c2ccc(OCCN4C[C@H]5C[C@@H]4CN5)cc2Cl)n3Cc2ccccc2)CC1 [Example R20, 8-(4-(2-((1R,4R)-2,5-diazabicyclo[2.2.1]heptan-2-yl)ethoxy)-2-chlorophenyl)-9-benzyl-6-(1-methylcyclopropoxy)-9H-purine] | 2 nM |
| CN1CCN(CCOc2ccc(-c3nc4c(OC5(C)CC5)ncnc4n3Cc3ccccc3)c(C#N)c2)CC1 [Example H8, 2-(9-benzyl-6-(1-methylcyclopropoxy)-9H-purin-8-yl)-5-(2-(4-methylpiperazin-1-yl)ethoxy)benzonitrile] | 3.98 nM |
| CC(C)Oc1ccc2c(c1)nc(-c1ccc(OC3CCCN(C)CC3)cc1Cl)n2Cc1ccccc1 (single isomer, unassigned) [Example A11, 1-benzyl-2-(2-chloro-4-((1-methylazepan-4-yl)oxy)phenyl)-5-isopropoxy-1H-benzo[d]imidazole] | 2 nM |
| CC1(Oc2ncnc3c2nc(-c2ccc(OCC(=O)NCCO)cc2Cl)n3Cc2ccccc2)CC1 [Example D28, 2-(4-(9-benzyl-6-(1-methylcyclopropoxy)-9H-purin-8-yl)-3-chlorophenoxy)-N-(2-hydroxyethyl)acetamide] | 3.98 nM |
| CC1(Oc2ncnc3c2nc(-c2ccc(OCCOCC(=O)O)cc2Cl)n3Cc2cccc(Cl)c2)CC1 [Example 46, 2-(2-(3-Chloro-4-(9-(3-chlorobenzyl)-6-(1-methylcyclopropoxy)-9H-purin-8-yl)phenoxy)ethoxy)acetic acid] | 5.01 nM |
| CC1(Oc2ncnc3c2nc(-c2ccc(O[C@H]4C[C@H](C(=O)O)C4)cc2Cl)n3Cc2cccc(Cl)c2)CC1 [Example T253, (1r,3r)-3-(3-chloro-4-(9-(3-chlorobenzyl)-6-(1-methylcyclopropoxy)-9H-purin-8-yl)phenoxy)cyclobutane-1-carboxylic acid] | 3.16 nM |
| CN1CCN(CCOc2ccc(-c3nc4c(OC5(C)CC5)ncnc4n3Cc3ncccn3)c(Cl)c2)CC1 [Example E6, 8-(2-chloro-4-(2-(4-methylpiperazin-1-yl)ethoxy)phenyl)-6-(1-methylcyclopropoxy)-9-(pyrimidin-2-ylmethyl)-9H-purine] | 12.6 nM |
| CC1(Oc2ncnc3c2nc(-c2ccc(CN4CCNCC4)cc2Cl)n3Cc2ccccc2)CC1 [Example N6, 9-benzyl-8-(2-chloro-4-(piperazin-1-ylmethyl)phenyl)-6-(1-methylcyclopropoxy)-9H-purine] | 6.31 nM |
| CC1(Oc2ncnc3c2nc(-c2ccc(OCCN4CCNCC45CC5)cc2Cl)n3Cc2ccccc2)CC1 [Example R22, 8-(4-(2-(4,7-diazaspiro[2.5]octan-4-yl)ethoxy)-2-chlorophenyl)-9-benzyl-6-(1-methylcyclopropoxy)-9H-purine] | 2.51 nM |
| CC1(Oc2ncnc3c2nc(-c2ccc(O[C@@H]4CCCNC4)cc2Cl)n3Cc2ccccc2)CC1 [Example D32, (R)-9-benzyl-8-(2-chloro-4-(piperidin-3-yloxy)phenyl)-6-(1-methylcyclopropoxy)-9H-purine] | 2.51 nM |
| Cc1cc(N2CCC(N(C)C)CC2)ncc1-c1nc2c(OC3(C)CC3)ncnc2n1Cc1ccccc1 [Example F3, 1-(5-(9-benzyl-6-(1-methylcyclopropoxy)-9H-purin-8-yl)-4-methylpyridin-2-yl)-N,N-dimethylpiperidin-4-amine] | 2.51 nM |
| CCC1(Oc2ncnc3c2nc(-c2ccc(OCCN4CCNCC4)cc2Cl)n3Cc2ccccc2)CC1 [Example Q2, 9-benzyl-8-(2-chloro-4-(2-(piperazin-1-yl)ethoxy)phenyl)-6-(1-ethylcyclopropoxy)-9H-purine] | 2.51 nM |
| C[C@H]1CNCCN1CCOc1ccc(-c2nc3c(OC4(C)CC4)ncnc3n2Cc2ccccc2)c(Cl)c1 [Example R10, (S)-9-benzyl-8-(2-chloro-4-(2-(2-methylpiperazin-1-yl)ethoxy)phenyl)-6-(1-methylcyclopropoxy)-9H-purine] | 2 nM |
| CC(COc1cccc(-c2nc3c(OC4(C)CC4)ncnc3n2Cc2cc(Cl)ccc2F)c1Cl)CC(=O)O (single isomer, unassigned) [Example U34, 4-(2-chloro-3-(9-(5-chloro-2-fluorobenzyl)-6-(1-methylcyclopropoxy)-9H-purin-8-yl)phenoxy)-3-methylbutanoic acid] | 7.94 nM |
| Cc1ccnc(Cn2c(-c3ccc(CC(N)=O)cc3Cl)nc3c(OC4(C)CC4)ncnc32)c1 [Example 30, 2-(3-Chloro-4-(6-(1-methylcyclopropoxy)-9-((4-methylpyridin-2-yl)methyl)-9H-purin-8-yl)phenyl)acetamide] | 7.94 nM |
